S100A4 inh HTS – inhibitors of human S100A4 binding to myosin IIA peptide; S100A4/TAMRA-MyoIIA peptide fluorescence polarization; hit rate 0.14% among 360,000; AID 652163; P26447; inhibition, % at 10.7 µM;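 active = mean inhibition of at least 70% across replicates, with every replicate also reaching that level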
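Test system: S100A4 monomer protein; Medium: HEPES pH 7.2 with CaCl2, KCl, NaCl, DTT, Triton; Probe or stimulus: TAMRA-labelled myosin IIA heavy-chain peptide probe, 5 nM; Doses: one dose per compound; Times: polarization read 5 min after assay mix addition, stable 5–60 min; Benchmarks: neutral control DMSO, positive control TFP.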
Yeast UUG start – alters start codon recognition fidelity in yeast. S. cerevisiae UUG-firefly luciferase reporter, luminescence/redox ratio. 350,000 tested, 0.13% active. activity score, % at 18.7 µM. AID 602363;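 active means replicate mean at a twofold rise or more, about +100% in these data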;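 further: firefly luciferase made from a UUG start codon reports start codon fidelity; reporter light over untreated wells divided by growth signal over untreated wells; some hits fall short of that in this replicate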
FGF22 binding – FGF22 (human) thermal shift binding | recombinant FGF22 thermal shift, SYPRO orange fluorescence; percent of sucrose octasulfate shift, DMSO zero | activity (Tm shift, normalised), % at 9.99 µM | hit rate 1.5% among 340,000 | AID 651658;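 active = mean Tm shift, scaled 0 neutral to 100 positive control, at about 1.3% or above, every replicate too, limit read from the data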
ERp5 block – inhibitors of human ERp5 | hit rate 0.05% among 350,000 | Q15084 | ERp5 insulin aggregation, absorbance 650 nm, 90 min | inhibition, % at 9.99 µM | AID 651711;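 active = mean replicate inhibition above about 25%, with every replicate also reaching it, limit read from the data, passing the limit was not always enough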
SIRT5 block – blocks human SIRT5 desuccinylation of peptide; hit rate 1.1% among 330,000; Q9NXA8; Purified SirT5, succinyl-peptide AMC, trypsin-coupled fluorescence; inhibition, % at 15 µM; AID 652115; in the data active = inhibition above about 15%
PDI inh – PDI (human) enzyme inhibition; PDI insulin aggregation turbidity, A650, 90 min; inhibition, % at 10 µM; hit rate 0.052% among 350,000;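 active = mean inhibition across replicates of 30% or more, whatever share of single replicates reach that level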
Numbers stand for hits; n = inactive; x = not tested or not shown. Sampled rows, rich in hits. Any-hit rate of the full collection: about 2.2%.

SMILES	S100A4 inh HTS	Yeast UUG start	FGF22 binding	ERp5 block	SIRT5 block	PDI inh
COC(=O)[C@@]12C[C@@H](CC(=O)NCc3cccc4ccccc34)C(=O)N(Cc3cccc4ccccc34)C1=CCC(C)(C)C2	n	x	n	n	n	x
COC(=O)[C@]12CCCCC=C1N(Cc1cccc3ccccc13)C(=O)[C@H](CC(=O)NCc1ccccc1)C2	n	x	n	n	n	x
COC(=O)[C@@]12C[C@@H](CC(=O)NCc3ccc(C)o3)C(=O)N(Cc3ccccc3)C1=CCC(C)(C)C2	n	x	n	n	n	x
COC(=O)[C@@]12C[C@@H](CC(=O)NCc3ccccc3)C(=O)N(Cc3cccc4ccccc34)C1=CCC(C)(C)C2	n	x	19.9	n	n	x
COC(=O)[C@]12CCCCC=C1N(Cc1cccc3ccccc13)C(=O)[C@H](CC(=O)NCC1CCCCC1)C2	n	x	x	n	22.0	x
COC(=O)[C@@]12C[C@@H](CC(=O)NCCCN3CCCC3=O)C(=O)N(Cc3ccccc3)C1=CCC(C)(C)C2	n	x	n	n	n	x
CCCCCCCCN1C(=O)[C@H](CC(=O)NCCCN2CCCC2=O)C[C@@]2(C(=O)OC)CC(C)(C)CC=C12	n	x	n	n	19.2	x
COC(=O)[C@@]12C[C@@H](CC(=O)NCc3ccccc3)C(=O)N(Cc3ccccc3)C1=CCC(C)(C)C2	n	x	n	n	35.6	x
CN(C)C(=O)[C@@H]1[C@@H](CO)[C@@H]2Cn3c(ccc(-c4ccccc4)c3=O)[C@H]1N2Cc1ccccn1	x	x	n	x	x	x
CCOC(=O)CC1(C)Sc2ccccc2N1S(=O)(=O)c1ccc(C)cc1 (stereo not drawn)	n	x	43.0	n	x	x
CC(C)(C)S(=O)N1Cc2cc(C(=O)N[C@@H]3CCN(Cc4ccccc4)C3)nc(-c3cccc(C#CCC4CCCC4)c3)c2[C@H]1CCO (stereo partly drawn)	n	x	n	n	n	x
Cc1ccc(N=c2c([N+](=O)[O-])nn(-c3ccc4c(c3)OCCO4)n2O)cc1F	n	x	43.1	n	n	n
C[C@H]1CN([C@@H](C)CO)C(=O)c2cccc(NC(=O)Nc3ccc(C(F)(F)F)cc3)c2O[C@@H]1CN(C)C(=O)Nc1cccc2ccccc12	n	n	n	n	n	x
C[C@@H]1CN([C@H](C)CO)C(=O)c2cccc(NC(=O)Nc3ccc(C(F)(F)F)cc3)c2O[C@H]1CN(C)C(=O)Nc1cccc2ccccc12	n	n	n	n	27.2	x
C[C@@H]1CN([C@@H](C)CO)C(=O)c2cccc(NC(=O)Nc3ccc(C(F)(F)F)cc3)c2O[C@H]1CN(C)C(=O)NC1CCCCC1	n	n	n	n	100.5	x
CC(C)NC(=O)N(C)C[C@@H]1Oc2c(NC(=O)Nc3cccc4ccccc34)cccc2C(=O)N([C@H](C)CO)C[C@H]1C	100.6	n	n	n	n	x
C[C@@H]1CN([C@H](C)CO)C(=O)c2cccc(N(C)C)c2O[C@@H]1CN(C)C(=O)NC1CCCCC1	n	x	n	n	27.5	x
C[C@@H]1CN([C@H](C)CO)C(=O)c2cc(NC(=O)c3ccccc3)ccc2O[C@@H](C)CCCCO[C@@H]1CN(C)S(=O)(=O)c1cccs1	x	n	n	x	x	x
COC(=O)C[C@H]1CC[C@@H]2[C@H](COC[C@@H](O)CN2S(=O)(=O)c2ccc(F)cc2)O1	n	n	n	n	n	x
CCN(Cc1ccccc1)C(=O)CSc1nncn1C	n	x	43.3	n	n	n
Cc1ccc(/C=N/NC(=O)CNC(=O)c2cccc([N+](=O)[O-])c2C)o1	n	x	43.3	n	n	n
COc1ccccc1/C=C/C(=O)NCC(=O)N/N=C/c1ccc(C)o1	n	x	n	n	99.8	n
CN1C(=O)c2cc(NC(=O)Nc3ccc(Cl)cc3)ccc2OC[C@@H]2O[C@H](CC(=O)O)CC[C@@H]21	n	n	x	n	n	x
CCCCCOc1ccc(Br)cc1CSC(=N)N	n	x	43.7	n	n	n
COc1cc2c(cc1OC)CN(C(=O)[C@H]1[C@@H]3C(=O)O[C@@H](c4ccccc4)[C@@H](c4ccccc4)N3[C@@H](c3ccccc3OCCO)[C@]13C(=O)Nc1ccccc13)CC2	n	n	n	n	n	x
O=c1ccc(-c2nc3ccccc3n2Cc2ccccc2Cl)c[nH]1	n	x	43.4	n	n	n
CCCCCN(C(=O)NC(=O)Nc1ccc(C)cc1C)S(C)(=O)=O	n	x	43.0	n	n	n

Screening results (PubChem BioAssay)
